{
  "source": "patent US20110245095A1",
  "about": "“FAST ASSIGNMENT OF ADEQUATE CHEMOTHERAPY WITH LATINUM BASED DRUGS FOR CANCER PATIENTS BASED ON THE IDENTIFICATION OF CONSTITUTIONAL BRCAL MUTATIONS” (priority 2008, published 2011)",
  "origin": "cited, not measured here",
  "system": "breast cancer",
  "conditions": "HER2 positive patients, compared with anthracycline and taxane combinations; cited from earlier work",
  "data": [
    {"substance": "trastuzumab: trastuzumab (Herceptin) for HER2 positive patients", "values": [
      {"measurement": "pCR rates", "result": "much higher"}
    ]}
  ]
}
